Measured values published in ChEMBL document CHEMBL1914415, “A sucrose-derived scaffold for multimerization of bioactive peptides” (Bioorg Med Chem, 2011).
pKi: −log10 of the molar value.

Protein sequences, listed by entry. Tags and fused reporters are not part of them.
UniProt P32245, whole entry: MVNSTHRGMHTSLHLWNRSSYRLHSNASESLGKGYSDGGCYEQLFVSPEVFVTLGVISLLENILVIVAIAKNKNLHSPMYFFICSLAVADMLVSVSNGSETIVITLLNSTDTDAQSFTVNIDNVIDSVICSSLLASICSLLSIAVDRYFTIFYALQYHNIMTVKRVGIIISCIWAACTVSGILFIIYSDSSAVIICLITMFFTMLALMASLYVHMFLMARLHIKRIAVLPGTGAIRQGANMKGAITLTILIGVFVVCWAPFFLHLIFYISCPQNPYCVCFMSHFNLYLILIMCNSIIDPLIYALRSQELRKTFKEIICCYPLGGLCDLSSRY

Target: Melanocortin receptor 4 (Homo sapiens, UniProt P32245)
Experiment: Displacement of Eu-DTAP-NDP-alpha-MSH-NH2 from MC4 receptor expressed in human HEK293 cells after 1 hr by time resolved fluorescence method
Type: cell-based

Compound	pKi
CCCCc1cn(CCCCCC(=O)N[C@@H](Cc2cnc[nH]2)C(=O)N[C@H](Cc2ccccc2)C(=O)N[C@@H](CCCNC(=N)N)C(=O)N[C@@H](Cc2c[nH]c3ccccc23)C(N)=O)nn1	5.72
[N-]=[N+]=NCCCCCC(=O)N[C@@H](Cc1cnc[nH]1)C(=O)N[C@H](Cc1ccccc1)C(=O)N[C@@H](CCCNC(=N)N)C(=O)N[C@@H](Cc1c[nH]c2ccccc12)C(N)=O	5.89
